# Measurements as given in US20260217701A1, “SELECTIVE BET INHIBITORS AND USES THEREOF” (Tay Therapeutics Limited, priority 2022, published 2026).
# System: collagen-induced arthritis
# Experiment: Collagen-induced arthritis (CIA) model: clinical scores and paw volume
# Type: in vivo, Lewis rats
# Settings: Day 18; R paw; Group 3 (CIA + Dexamethasone); individual animals
smiles,measurement,value
"C[C@@H]1C[C@H]2[C@@H]3CCC4=CC(=O)C=C[C@]4(C)[C@@]3(F)[C@@H](O)C[C@]2(C)[C@@]1(O)C(=O)CO [Dexamethasone, dexamethasone]",Animal paw volume,1.17 mL
